The results in this text go back to patent publication US9035059B2, “Nitrogen-containing condensed heterocyclic compound” (TAISHO PHARMACEUTICAL CO., LTD., priority 2011, dated 2015).

Protein sequences, listed by entry. Tags and fused reporters are not part of them.
UniProt Q3SYC2, whole entry: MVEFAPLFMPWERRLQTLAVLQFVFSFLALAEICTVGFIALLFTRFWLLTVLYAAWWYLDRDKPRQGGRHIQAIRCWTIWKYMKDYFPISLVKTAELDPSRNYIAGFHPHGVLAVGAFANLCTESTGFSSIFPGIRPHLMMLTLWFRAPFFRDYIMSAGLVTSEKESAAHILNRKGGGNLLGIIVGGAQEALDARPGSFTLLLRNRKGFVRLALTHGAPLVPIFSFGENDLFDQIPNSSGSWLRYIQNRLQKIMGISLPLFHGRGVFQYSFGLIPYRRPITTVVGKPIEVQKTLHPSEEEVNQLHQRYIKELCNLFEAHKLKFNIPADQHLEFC

In this experiment the target is MGAT2 (microsomal fraction of human small intestine) (Homo sapiens (Human), UniProt Q3SYC2). Description: Test Example 2: Test of MGAT2 inhibitory action (microsomal fraction of human small intestine, 3H-labeled 2-monooleoyl glycerol). It is filed as biochemical. Conditions: read-out: Activity Value [nM] (IC50, concentration at which 50% of the products 3H-labeled dioleoyl glycerol and trioleoyl glycerol was inhibited); microsomal fraction of human small intestine 5 μg/ml; 4 μM oleoyl-CoA, 1.25 μM 2-monooleoyl glycerol, 0.125 μM 3H-labeled 2-monooleoyl glycerol; room temperature 30 min; tested form: HCl.
With `CC(c1cnn(C)c1)N1CCc2cc(S(=O)(=O)Nc3ccc(CCCC4CCCC4)cc3F)ccc2C1` (single isomer, unassigned), the IC50 worked out at 159 nM.

With `CC(c1cnc(C(C)(C)C)s1)N1CCc2cc(S(=O)(=O)Nc3ccc(CCCC4CCCC4)cc3F)ccc2C1` (single isomer, unassigned) [24-5], the IC50 turned out to be 10 nM.

On to `CC(c1cnc(C(C)(C)C)s1)N1CCc2cc(S(=O)(=O)Nc3ccc(CCCC4CCCC4)cc3F)ccc2C1` (single isomer, unassigned) [24-6], for which the IC50 turned out to be 75 nM.
